{
  "source": "patent US20050227989A1",
  "about": "“Polycyclic thiazoles as potassium ion channel modulators” (ICAgen, Inc., priority 2004, published 2005)",
  "biological_target": "hSK2 (Homo sapiens, UniProt Q9H2S1)",
  "assay": "86Rb+ efflux assay for compound activity towards hSK channels",
  "assay_type": "cell-based",
  "conditions": "read-out: hSK2 Inhibitory Activity; 86Rb+ efflux stimulated with calcium ionophore; drug 0.01 to 30 μM in EBSS",
  "data": [
    {"smiles": "O=[N+]([O-])c1cnc(Nc2nc(-c3ccccn3)c([N+](=O)[O-])s2)c([N+](=O)[O-])c1", "values": [
      {"measurement": "IC50", "value": "1 to 30", "unit": "µM"}
    ]}
  ]
}
